From paper PMC12423841 (ACS Omega, 2025)

System: VSV pseudotyped with the SARS-CoV-2 Wuhan-Hu-1 S
Conditions: VeroE6 cells; VSV pseudotyped with Wuhan-Hu-1 S

C=C1CC[C@H](O)C/C1=C/C=C1\CCC[C@]2(C)[C@@H]([C@H](C)CCCC(C)(C)O)CC[C@@H]12 [calcifediol]
therapeutic window (CC50/EC50): 3.34 ± 1.59

CC(C)c1c(CN(C)C(C)Cc2ccccc2)n(C)n(-c2ccccc2)c1=O (stereo not drawn) [famprofazone]
therapeutic window (CC50/EC50): 12.95 ± 6.88

CCCCCCCCc1ccc(CCC(N)(CO)CO)cc1 [fingolimod]
therapeutic window (CC50/EC50): 2.64 ± 2.69
